Some of the results follow.
Tested on: A. baumannii ATCC 17978
Assay: relative growth (fraction of control); higher = less inhibition
Conditions: 50 µM

SMILES | relative growth
NC1CCCC[C@H]1N.O=C1[O][Pt][O]C1=O (some centres not stated) | 0.911
O=C(O)c1ccccc1Nc1cccc(C(F)(F)F)c1 | 0.966
OCCc1ccccc1 | 0.901
O=C(C[C@@H]1CC[C@@H]2[C@H](COC[C@@H](O)CN2Cc2ccccc2F)O1)N[C@@H]1CCN(Cc2ccccc2)C1 | 1.11
Cc1cnc2c(c1NCCN(C)C)c(=O)n(C)c(=O)n2C | 0.964
C[C@H]1CN([C@@H](C)CO)C(=O)CCCn2nncc2CO[C@@H]1CN(C)C(=O)Nc1ccc2c(c1)OCO2 | 1.2
C[C@H](CO)N1C[C@H](C)[C@@H](CN(C)C(=O)c2ccccc2)Oc2cc(C#CC3(O)CCCC3)ccc2S1(=O)=O | 0.971
CS(=O)(=O)c1ccc(S(C)(=O)=O)s1 | 1.13
Cc1cccc(C)c1OCC(=O)N[C@@H](Cc1ccccc1)[C@@H](O)C[C@H](Cc1ccccc1)NC(=O)[C@H](C(C)C)N1CCCNC1=O | 1.05
COCC(=O)N1C[C@H](C)[C@H](OC)CN(C)C(=O)c2cc(NC(=O)Nc3ccccc3)ccc2OC[C@H]1C | 1.21
CCc1nn(C)c2c(=O)c(=O)c2n(C)[nH]1 | 1.15
COCC(=O)N1C[C@@H](C)[C@@H](OC)CN(C)C(=O)c2ccc(NC(=O)c3cc(C)on3)cc2OC[C@H]1C | 1.25
O=C(NCCO)c1ccc(C(=O)NCCO)cc1 | 1.17
C[C@H](CO)N1C[C@H](C)[C@@H](CN(C)C(=O)Cc2ccncc2)Oc2cc(C#Cc3ccccc3F)ccc2S1(=O)=O | 0.814
Clc1ccc(C(c2ccccc2Cl)C(Cl)Cl)cc1 (configuration not stated) | 0.859
C=CCOC(=O)[C@H]1[C@@H]2C(=O)O[C@@H](c3ccccc3)[C@@H](c3ccccc3)N2[C@@H](c2ccc(OCCOC(=O)[C@H]3C[C@H]4C(=O)N[C@@H](Cc5ccccc5)C(=O)N4[C@H]3c3cccc(OCCO)c3)cc2)[C@]12C(=O)Nc1ccc(I)cc12 | 1.12
COC(=O)/C=c1\sc2n(c1=O)CCN=2 | 0.888
C[C@@H]1CN([C@@H](C)CO)S(=O)(=O)c2ccc(-c3ccccc3F)cc2O[C@H]1CN(C)S(C)(=O)=O | 0.93
CCCNC(=O)N(C)C[C@@H]1Oc2cc(-c3ccc(C)cc3)ccc2S(=O)(=O)N([C@@H](C)CO)C[C@H]1C | 0.816
O=C1N[C@H](Cc2c[nH]c3ccccc23)COC(=O)[C@@H](Cc2ccc(F)cc2)CC=CC[C@@H]1CC(=O)N(CCO)Cc1ccccc1 | 0.982
C[C@H](N[C@@H](CCc1ccccc1)C(=O)O)C(=O)N1Cc2ccccc2C[C@H]1C(=O)O | 1.19

SMILES | relative growth
CN1CCN(C(=O)C[C@@H]2CC[C@@H](NC(=O)Cc3ccccn3)[C@H](CO)O2)CC1 | 0.886
O=C(O)[C@H]1NC(=O)[C@@H]1Cc1ccccc1 | 1.08
Cc1ccc(S[C@H](C)C(=O)c2ccc(C)c(Cl)c2)cc1 | 1.06
O=C(/C=C/c1ccccc1)c1ccc(O)cc1 | 0.888
O=C(O)c1ccc2c(c1)OCO2 | 1.11
O=C(CN1CCOCC1)N[C@@H]1CC[C@@H](CCn2cc(C3CC3)nn2)O[C@@H]1CO | 1.02
CN(C)c1nc(SCCO)nc(N(C)C)n1 | 1.01
Cc1ccc(S[C@]2(C(=O)NC(C)C)CC(=O)N(Cc3ccccc3C(F)(F)F)[C@@H]2c2ccc(CO)cc2)cc1 | 0.9
N=C(N=C(N)N)N1N=CC[C@@H]1c1ccccc1 | 0.946
CC(=O)N1CCN(c2ccnc3c2c(=O)n(CC(=O)NC(C)(C)C)c(=O)n3C)CC1 | 0.964
C[C@H](CO)N1C[C@H](C)[C@@H](CN(C)C(=O)C2CCOCC2)Oc2cc(-c3ccc(C(=O)N(C)C)cc3)ccc2S1(=O)=O | 1.06
C[C@H](CO)N1C[C@H](C)[C@H](CN(C)S(=O)(=O)c2ccc(F)cc2)Oc2cc(Br)ccc2S1(=O)=O | 1.1
O=C(CN1CCOCC1)NCC[C@@H]1CC[C@H](NC(=O)c2ccccc2F)[C@@H](CO)O1 | 1.08
Nc1nonc1C(=O)OCC(=O)c1ccccc1 | 0.902
CC(C)c1c(C(=O)Nc2ccccc2)c(-c2ccccc2)c(-c2ccc(F)cc2)n1CC[C@@H](O)C[C@@H](O)CC(=O)[O-].[Ca+2] | 1.05
O=C(O)CCC(=O)N1CC(=O)Nc2ccccc21 | 0.954
Cn1c(=O)[nH]c(=O)c2c1ncn2CCNCc1ccco1 | 0.975
COC(=O)CCCCCCC(=O)Nc1ccc([C@H]2O[C@@H](CSc3nc4ccccc4s3)C[C@H](c3ccccc3)O2)cc1 | 1.11
CC(C)C#Cc1cnc2c(c1)C(=O)N([C@@H](C)CO)C[C@@H](C)[C@@H](CN(C)C(=O)c1ccc3c(c1)OCO3)O2 | 0.995
CCn1c(Cl)nc2c1c(=O)n(C)c(=O)n2C | 0.925
COc1cc(/C=C/C(=O)O)cc(OC)c1O | 0.92

SMILES | relative growth
NCCCS(=O)(=O)O | 0.95
O=C(C[C@H]1CC[C@H]2[C@@H](COC[C@H](O)CN2S(=O)(=O)c2ccccc2)O1)NCc1ccc2c(c1)OCO2 | 0.957
Cc1ccc(S(=O)(=O)N[C@@H](Cc2ccccc2)C(=O)NCCCn2cc(-c3cccc(/C=C/C(=O)NO)c3)nn2)cc1 | 1.02
Cc1ccc(CNC(=S)NCCO)cc1 | 1.02
COC(=O)[C@@H](NC(=O)c1cccc(NC=O)c1O)[C@@H](C)O | 1.03
Nc1nc(/C(=C/CC(=O)O)C(=O)N[C@@H]2C(=O)N3C(C(=O)O)=CCS[C@H]23)cs1 | 0.146
CCOC(=O)c1c[nH]c(CC(C)=O)nc1=O | 1.01
COC(=O)C[C@H]1C(C)(C)C(=O)[C@@H]2CC3C4=CC(=O)O[C@@H](c5ccoc5)[C@]4(C)CCC3[C@@]1(C)C2=O (some centres not stated) | 0.992
N#C[C@H](NCCO)c1ccc(F)cc1 | 0.929
C=CC1=C(C)/C(=C/c2[nH]c(Cc3[nH]c(/C=C4\NC(=O)C(C)=C4C=C)c(C)c3CCC(=O)O)c(CCC(=O)O)c2C)NC1=O | 1.11
COc1ccccc1-c1cnc2c(c1)C(=O)N([C@@H](C)CO)C[C@H](C)[C@H](CN(C)C(=O)c1ccncc1)O2 | 0.991
C[C@@H]1CNS(=O)(=O)CO1 | 1.05
N[C@@H]1CC[C@@H](CCn2cc(-c3ccccn3)nn2)O[C@H]1CO | 0.93
C[C@@H]1O[C@@H](O[C@@H]2[C@@H](O)[C@H](C)O[C@@H](OC[C@H]3O[C@@H](Oc4c(-c5ccc(O)cc5)oc5cc(O)cc(O)c5c4=O)[C@H](O)[C@@H](O)[C@H]3O)[C@@H]2O)[C@H](O)[C@H](O)[C@H]1O | 1.11
C=CCC[C@H](Cc1ccc(F)cc1)C(=O)OC[C@@H](NC(=O)[C@@H](CC=C)CC(=O)N[C@@H](CO)Cc1ccccc1)C(C)(C)C | 0.895
O=C(CCCCCC(=O)N/N=C/[C@H](O)[C@@H](O)[C@@H](O)[C@H](O)CO)NO | 1.02
NC1=N[C@H]2CS(=O)(=O)C[C@@H]2S1 | 0.982
COCC#Cc1ccc2c(c1)O[C@H](CN(C)C(=O)CN(C)C)[C@H](C)CN([C@H](C)CO)S2(=O)=O | 0.922
C=CCC[C@@H](Cc1ccc(F)cc1)C(=O)OC[C@@H](NC(=O)[C@@H](CC=C)CC(=O)N[C@H](CO)Cc1ccccc1)C(C)(C)C | 0.775
CC(C)=CCCC1(C)C=Cc2c(O)c3c(c(CC=C(C)C)c2O1)OC12C(=CCCC1C(C)(C)O[C@@]2(C/C=C(\C)C(=O)O)C(=O)O)C3=O (some centres not stated) | 1.12
CC/C=C(/C(=O)N[C@@H]1C(=O)N2C(C(=O)OCOC(=O)C(C)(C)C)=C(COC(N)=O)CS[C@H]12)c1csc(N)n1.Cl | 0.923

SMILES | relative growth
Cc1noc(C)c1-c1ccc(N)cc1 | 1.12
Nc1nc(N)c2nc(-c3ccccc3)c(N)nc2n1 | 1.04
Cn1c(=O)c(=O)n(C)c2cc(S(=O)(=O)CCC(=O)NCc3ccccc3)ccc21 | 1.09
Cc1ccccc1S(=O)(=O)N1C[C@H](O)COC[C@H]2O[C@H](CC(=O)NCCc3ccccc3)CC[C@@H]21 | 0.869
CCC(=O)O[C@@H](O[P@](=O)(CCCCc1ccccc1)CC(=O)N1C[C@H](C2CCCCC2)C[C@H]1C(=O)[O-])C(C)C.[Na+] | 1.12
C[C@H]1CC2C([C@@H](O)C[C@@]3(C)C2CC[C@]3(O)C(=O)CO)[C@@]2(C)C=CC(=O)C=C12 (some centres not stated) | 1
COc1cccc(O)c1O | 0.941
NCC[C@@H]1CC[C@H](NC(=O)Nc2ccc(F)cc2)[C@H](CO)O1 | 1.06
O=C(C[C@@H]1CC[C@H]2[C@@H](COC[C@@H](O)CN2S(=O)(=O)c2ccc(Cl)cc2)O1)NCCN1CCCCC1 | 0.9
C[C@H]1[C@H](OC(=O)CCC(=O)O)O[C@@H]2O[C@]3(C)CC[C@H]4[C@H](C)CC[C@@H]1[C@@]24OO3 | 0.829
C[C@H](CO)N1C[C@H](C)[C@@H](CN(C)C(=O)C2CC2)Oc2cc(-c3ccc(C(=O)N(C)C)cc3)ccc2S1(=O)=O | 0.901
CN1CCN(C(=O)C[C@H]2C=C[C@H](NC(=O)Cc3ccccn3)[C@H](CO)O2)CC1 | 1.15
COC(=O)c1c(N)c(C#N)c2n1CCC2 | 0.893
CN(C)CCCNC(=O)C[C@@H]1CC[C@H](NS(=O)(=O)c2ccccc2)[C@@H](CO)O1 | 0.987
CSc1cccc(NC(=O)/C=C/c2ccc(C(C)C)cc2)c1 | 1.22
COc1ccc([C@H]([C@H](Cc2ccccc2)OC(C)=O)N(C/C=C\[C@@H](O)c2ccccc2)[C@@H](Cc2ccccc2)C(OC)OC)cc1 | 1.22
CN1CCN(C(=O)C[C@H]2CC[C@@H]3[C@H](COC[C@H](O)CN3C(=O)Nc3cc(Cl)cc(Cl)c3)O2)CC1 | 1
O=C(C[C@H]1C[C@H]2c3cc(NC(=O)c4ccc5c(c4)OCO5)ccc3O[C@H]2[C@H](CO)O1)NCCc1ccccc1 | 0.891
COCCOC(=O)N1C(=O)[C@@]2(c3cc(C#CCNC(N)=O)ccc31)[C@H](C(N)=O)[C@H]1C(=O)O[C@H](c3ccccc3)[C@H](c3ccccc3)N1[C@@H]2c1ccccc1OCCO | 0.959

Source: published antibiotic growth screens (doi:10.1038/s41589-023-01349-8)
